Assay [1] concerns the target B-cell lymphoma 6 protein (Homo sapiens, UniProt P41182). The following applies: SUD4.
Assay [2] deals with T1, Zinc finger and BTB domain-containing protein 24 (Homo sapiens) (UniProt O43167).
T1 sequence (whole entry): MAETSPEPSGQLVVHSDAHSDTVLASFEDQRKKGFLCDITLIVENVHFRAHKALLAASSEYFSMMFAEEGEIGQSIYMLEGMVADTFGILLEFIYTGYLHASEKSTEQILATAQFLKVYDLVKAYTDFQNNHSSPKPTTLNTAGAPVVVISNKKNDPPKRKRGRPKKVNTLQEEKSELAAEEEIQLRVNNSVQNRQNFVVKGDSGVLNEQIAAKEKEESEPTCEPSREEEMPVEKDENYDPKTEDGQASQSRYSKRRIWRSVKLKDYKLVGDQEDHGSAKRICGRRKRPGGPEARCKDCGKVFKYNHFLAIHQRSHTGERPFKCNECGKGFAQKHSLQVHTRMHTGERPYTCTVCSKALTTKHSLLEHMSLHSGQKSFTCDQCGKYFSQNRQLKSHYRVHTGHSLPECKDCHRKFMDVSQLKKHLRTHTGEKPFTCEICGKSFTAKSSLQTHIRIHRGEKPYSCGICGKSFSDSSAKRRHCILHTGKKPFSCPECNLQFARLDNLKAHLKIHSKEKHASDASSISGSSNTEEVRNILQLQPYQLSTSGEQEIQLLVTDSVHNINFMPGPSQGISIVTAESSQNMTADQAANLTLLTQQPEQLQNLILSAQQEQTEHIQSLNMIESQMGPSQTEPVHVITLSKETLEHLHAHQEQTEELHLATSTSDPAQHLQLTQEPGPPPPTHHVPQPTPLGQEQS
As to conditions: SUD4.

Assay [3] has as its target T2, Zinc finger and BTB domain-containing protein 10 (Homo sapiens) (UniProt Q96DT7).
T2 sequence (whole entry): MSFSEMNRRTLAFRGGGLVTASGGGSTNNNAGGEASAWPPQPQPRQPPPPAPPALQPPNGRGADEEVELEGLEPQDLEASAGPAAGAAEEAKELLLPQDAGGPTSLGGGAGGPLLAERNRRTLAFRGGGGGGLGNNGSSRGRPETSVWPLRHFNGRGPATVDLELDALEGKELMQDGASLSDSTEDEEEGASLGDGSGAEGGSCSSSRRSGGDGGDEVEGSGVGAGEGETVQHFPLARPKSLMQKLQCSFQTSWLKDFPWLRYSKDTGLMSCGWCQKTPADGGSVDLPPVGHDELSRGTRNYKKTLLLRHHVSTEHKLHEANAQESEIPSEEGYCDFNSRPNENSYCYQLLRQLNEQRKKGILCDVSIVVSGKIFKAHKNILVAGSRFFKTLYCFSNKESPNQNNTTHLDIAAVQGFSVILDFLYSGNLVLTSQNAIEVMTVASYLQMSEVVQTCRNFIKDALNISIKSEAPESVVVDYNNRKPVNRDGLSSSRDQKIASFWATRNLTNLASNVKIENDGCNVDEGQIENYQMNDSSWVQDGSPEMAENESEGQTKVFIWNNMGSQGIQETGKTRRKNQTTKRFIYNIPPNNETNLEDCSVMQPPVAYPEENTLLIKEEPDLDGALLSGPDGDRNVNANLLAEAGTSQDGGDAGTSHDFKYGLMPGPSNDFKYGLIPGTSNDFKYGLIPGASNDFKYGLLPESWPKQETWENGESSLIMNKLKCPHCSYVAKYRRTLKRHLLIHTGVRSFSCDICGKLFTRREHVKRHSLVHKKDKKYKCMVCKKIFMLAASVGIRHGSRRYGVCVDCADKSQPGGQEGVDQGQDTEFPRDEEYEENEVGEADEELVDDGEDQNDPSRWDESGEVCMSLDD
The following applies: OCI-Ly1.

Assay [4] has as its target T3, Protein archease (Homo sapiens) (UniProt Q8IWT0).
T3 sequence (whole entry): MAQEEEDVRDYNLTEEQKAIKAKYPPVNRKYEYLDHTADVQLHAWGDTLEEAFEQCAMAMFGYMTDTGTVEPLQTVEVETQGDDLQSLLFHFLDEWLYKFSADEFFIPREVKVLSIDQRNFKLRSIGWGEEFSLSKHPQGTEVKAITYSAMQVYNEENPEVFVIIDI
The following applies: SUD4.

For assay [5], the target named is T4, Transcriptional regulator Kaiso (Homo sapiens) (UniProt Q86T24).
T4 sequence (whole entry): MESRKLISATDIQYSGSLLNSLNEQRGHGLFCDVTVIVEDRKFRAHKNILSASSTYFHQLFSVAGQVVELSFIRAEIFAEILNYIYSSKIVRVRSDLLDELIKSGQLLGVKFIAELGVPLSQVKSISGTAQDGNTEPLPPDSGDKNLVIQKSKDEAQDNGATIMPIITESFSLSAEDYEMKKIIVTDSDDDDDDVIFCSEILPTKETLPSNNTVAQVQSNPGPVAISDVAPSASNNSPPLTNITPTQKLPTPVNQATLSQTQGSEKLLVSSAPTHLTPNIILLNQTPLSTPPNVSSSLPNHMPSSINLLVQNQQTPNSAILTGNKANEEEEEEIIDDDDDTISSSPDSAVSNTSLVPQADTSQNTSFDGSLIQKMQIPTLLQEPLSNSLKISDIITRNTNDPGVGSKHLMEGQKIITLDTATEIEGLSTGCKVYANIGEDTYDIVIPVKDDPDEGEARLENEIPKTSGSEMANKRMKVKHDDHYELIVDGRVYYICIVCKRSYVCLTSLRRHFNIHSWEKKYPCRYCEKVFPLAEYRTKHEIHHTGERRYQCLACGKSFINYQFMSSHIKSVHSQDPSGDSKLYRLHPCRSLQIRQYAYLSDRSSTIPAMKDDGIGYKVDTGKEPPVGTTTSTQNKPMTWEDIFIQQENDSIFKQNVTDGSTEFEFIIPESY
As to conditions: SUD4.

For `C[C@@H]1CN(c2ncc(Cl)c(Nc3ccc4c(c3)n(CCC(C)(C)O)c(=O)n4C)n2)C[C@H](C)C1(F)F`, the Normalized abundances for DMSO in assay [1] is 12100; in assay [2] it was 291; in assay [3], 346; in assay [4], 1470; in assay [5] it was 2150. Also, the Normalized abundances for compound in assay [1] came to 5260; in assay [2], 291; in assay [3], 371; in assay [4], 1500; in assay [5] it was 2260.

For the origin of these results see ChEMBL document CHEMBL5058646 (2022).
